Results published in PubChem BioAssay (EPA / NIEHS).
The entries are a selection whose mix differs from that of the whole data set. Records with an inconclusive call do not appear. The source made the active and inactive calls. The calls were made as follows, unless noted: active = hit-call score of the fitted dose curve at least 0.9, where 1 is the maximum; inactive = score below 0.9.

Chains of the proteins cited; added tags and fusions are not shown.
UniProt Q13133, whole entry: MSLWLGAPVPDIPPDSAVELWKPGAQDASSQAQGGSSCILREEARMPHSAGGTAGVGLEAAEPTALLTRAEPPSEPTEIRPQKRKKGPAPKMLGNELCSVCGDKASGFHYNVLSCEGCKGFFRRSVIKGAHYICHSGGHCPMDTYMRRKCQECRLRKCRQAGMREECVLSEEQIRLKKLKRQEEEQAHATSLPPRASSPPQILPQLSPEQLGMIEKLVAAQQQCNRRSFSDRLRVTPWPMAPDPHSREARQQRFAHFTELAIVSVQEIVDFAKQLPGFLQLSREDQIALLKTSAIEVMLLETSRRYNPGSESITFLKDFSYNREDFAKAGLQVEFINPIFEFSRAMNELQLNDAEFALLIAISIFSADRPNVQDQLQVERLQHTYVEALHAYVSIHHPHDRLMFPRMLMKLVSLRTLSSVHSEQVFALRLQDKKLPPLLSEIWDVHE
UniProt P55055, whole entry: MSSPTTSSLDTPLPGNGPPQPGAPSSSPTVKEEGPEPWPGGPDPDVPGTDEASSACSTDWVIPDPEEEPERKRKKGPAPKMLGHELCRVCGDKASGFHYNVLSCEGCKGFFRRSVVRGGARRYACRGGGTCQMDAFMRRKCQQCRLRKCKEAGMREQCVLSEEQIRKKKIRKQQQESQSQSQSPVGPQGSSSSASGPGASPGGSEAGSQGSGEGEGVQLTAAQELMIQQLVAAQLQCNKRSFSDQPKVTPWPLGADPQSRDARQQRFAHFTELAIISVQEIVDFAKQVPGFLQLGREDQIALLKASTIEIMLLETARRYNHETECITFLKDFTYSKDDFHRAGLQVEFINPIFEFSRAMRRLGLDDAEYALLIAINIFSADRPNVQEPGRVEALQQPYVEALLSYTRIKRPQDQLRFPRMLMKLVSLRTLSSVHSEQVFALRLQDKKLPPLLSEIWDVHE
UniProt P10242, whole entry: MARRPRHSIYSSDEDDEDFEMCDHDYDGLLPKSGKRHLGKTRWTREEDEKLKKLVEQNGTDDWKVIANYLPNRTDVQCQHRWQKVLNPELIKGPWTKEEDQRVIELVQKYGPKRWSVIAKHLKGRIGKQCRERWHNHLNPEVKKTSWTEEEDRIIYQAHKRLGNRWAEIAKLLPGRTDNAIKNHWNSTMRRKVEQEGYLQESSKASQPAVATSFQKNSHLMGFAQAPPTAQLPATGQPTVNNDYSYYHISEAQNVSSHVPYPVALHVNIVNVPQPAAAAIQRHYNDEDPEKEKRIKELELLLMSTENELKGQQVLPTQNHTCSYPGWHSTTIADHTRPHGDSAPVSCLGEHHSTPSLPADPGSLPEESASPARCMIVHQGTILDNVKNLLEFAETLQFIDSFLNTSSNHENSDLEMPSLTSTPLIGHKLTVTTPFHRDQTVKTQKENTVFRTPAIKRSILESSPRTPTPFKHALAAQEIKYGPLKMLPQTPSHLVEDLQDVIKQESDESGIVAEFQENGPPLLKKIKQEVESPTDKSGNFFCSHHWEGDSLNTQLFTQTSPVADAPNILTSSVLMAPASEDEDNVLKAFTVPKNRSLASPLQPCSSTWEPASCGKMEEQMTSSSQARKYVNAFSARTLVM
UniProt Q16656, whole entry: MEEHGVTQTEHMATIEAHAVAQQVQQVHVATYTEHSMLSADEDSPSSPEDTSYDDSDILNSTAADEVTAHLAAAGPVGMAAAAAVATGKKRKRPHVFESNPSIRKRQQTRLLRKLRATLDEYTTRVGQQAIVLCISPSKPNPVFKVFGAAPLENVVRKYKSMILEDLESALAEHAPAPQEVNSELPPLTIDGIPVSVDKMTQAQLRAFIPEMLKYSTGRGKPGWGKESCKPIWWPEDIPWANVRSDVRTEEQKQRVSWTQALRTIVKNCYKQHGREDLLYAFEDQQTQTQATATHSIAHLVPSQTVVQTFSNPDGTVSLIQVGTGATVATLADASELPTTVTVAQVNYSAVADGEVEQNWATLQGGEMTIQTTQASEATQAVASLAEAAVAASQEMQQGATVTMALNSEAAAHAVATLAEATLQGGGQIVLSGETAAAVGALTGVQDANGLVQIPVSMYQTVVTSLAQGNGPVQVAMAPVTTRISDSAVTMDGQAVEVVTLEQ
UniProt P01106, whole entry: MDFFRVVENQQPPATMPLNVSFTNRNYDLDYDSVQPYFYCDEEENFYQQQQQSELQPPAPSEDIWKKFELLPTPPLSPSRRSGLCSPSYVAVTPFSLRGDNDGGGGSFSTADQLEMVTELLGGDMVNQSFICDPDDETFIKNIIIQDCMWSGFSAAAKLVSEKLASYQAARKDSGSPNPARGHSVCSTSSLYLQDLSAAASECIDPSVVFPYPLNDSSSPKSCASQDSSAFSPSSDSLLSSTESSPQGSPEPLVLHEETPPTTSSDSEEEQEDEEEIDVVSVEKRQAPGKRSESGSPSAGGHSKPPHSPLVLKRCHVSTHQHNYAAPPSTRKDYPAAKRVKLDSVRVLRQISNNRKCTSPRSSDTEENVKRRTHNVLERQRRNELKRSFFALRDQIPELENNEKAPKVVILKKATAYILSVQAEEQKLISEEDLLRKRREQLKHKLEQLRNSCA
UniProt P04637, whole entry: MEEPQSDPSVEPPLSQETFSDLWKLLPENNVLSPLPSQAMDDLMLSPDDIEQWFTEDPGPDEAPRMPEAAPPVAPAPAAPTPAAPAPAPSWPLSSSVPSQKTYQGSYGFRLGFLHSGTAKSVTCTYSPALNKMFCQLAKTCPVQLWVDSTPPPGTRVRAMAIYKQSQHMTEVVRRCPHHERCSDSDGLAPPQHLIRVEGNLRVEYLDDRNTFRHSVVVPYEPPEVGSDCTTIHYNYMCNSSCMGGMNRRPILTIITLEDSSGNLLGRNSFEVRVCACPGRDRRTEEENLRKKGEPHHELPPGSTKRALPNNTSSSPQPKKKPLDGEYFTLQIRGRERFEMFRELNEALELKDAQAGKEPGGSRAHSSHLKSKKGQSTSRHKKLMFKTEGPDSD
UniProt P62508, whole entry: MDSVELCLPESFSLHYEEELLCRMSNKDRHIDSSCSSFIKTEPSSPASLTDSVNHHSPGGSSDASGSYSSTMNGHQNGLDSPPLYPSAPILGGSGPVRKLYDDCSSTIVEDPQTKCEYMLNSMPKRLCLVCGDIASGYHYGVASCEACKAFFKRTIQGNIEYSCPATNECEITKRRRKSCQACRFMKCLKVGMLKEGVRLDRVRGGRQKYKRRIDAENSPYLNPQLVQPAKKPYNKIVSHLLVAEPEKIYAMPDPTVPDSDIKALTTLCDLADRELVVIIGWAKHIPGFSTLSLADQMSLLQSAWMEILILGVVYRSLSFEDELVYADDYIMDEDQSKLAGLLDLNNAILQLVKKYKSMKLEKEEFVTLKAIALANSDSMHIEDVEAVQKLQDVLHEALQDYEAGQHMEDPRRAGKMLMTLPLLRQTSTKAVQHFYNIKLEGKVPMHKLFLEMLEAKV
UniProt P04150, whole entry: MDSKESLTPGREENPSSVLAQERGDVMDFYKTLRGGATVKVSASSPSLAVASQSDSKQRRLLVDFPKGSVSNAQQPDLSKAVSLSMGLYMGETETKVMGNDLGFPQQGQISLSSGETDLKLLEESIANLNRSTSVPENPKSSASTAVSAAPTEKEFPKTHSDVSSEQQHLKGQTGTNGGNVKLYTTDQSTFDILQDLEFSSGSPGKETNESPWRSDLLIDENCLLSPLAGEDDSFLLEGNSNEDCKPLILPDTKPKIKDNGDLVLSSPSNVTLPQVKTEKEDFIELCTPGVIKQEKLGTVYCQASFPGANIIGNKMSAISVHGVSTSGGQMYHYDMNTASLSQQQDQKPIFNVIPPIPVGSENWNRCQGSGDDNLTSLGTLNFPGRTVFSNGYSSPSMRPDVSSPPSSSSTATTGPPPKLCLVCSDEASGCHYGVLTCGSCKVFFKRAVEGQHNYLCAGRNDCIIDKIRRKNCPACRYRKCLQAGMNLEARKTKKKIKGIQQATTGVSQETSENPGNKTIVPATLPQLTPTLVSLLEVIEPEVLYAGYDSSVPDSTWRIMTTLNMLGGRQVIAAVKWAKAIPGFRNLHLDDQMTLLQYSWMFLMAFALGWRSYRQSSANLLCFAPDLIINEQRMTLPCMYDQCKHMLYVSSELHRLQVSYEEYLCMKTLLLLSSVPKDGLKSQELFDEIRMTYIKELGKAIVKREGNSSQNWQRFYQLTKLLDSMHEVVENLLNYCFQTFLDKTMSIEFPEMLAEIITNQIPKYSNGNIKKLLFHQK
UniProt P41235, whole entry: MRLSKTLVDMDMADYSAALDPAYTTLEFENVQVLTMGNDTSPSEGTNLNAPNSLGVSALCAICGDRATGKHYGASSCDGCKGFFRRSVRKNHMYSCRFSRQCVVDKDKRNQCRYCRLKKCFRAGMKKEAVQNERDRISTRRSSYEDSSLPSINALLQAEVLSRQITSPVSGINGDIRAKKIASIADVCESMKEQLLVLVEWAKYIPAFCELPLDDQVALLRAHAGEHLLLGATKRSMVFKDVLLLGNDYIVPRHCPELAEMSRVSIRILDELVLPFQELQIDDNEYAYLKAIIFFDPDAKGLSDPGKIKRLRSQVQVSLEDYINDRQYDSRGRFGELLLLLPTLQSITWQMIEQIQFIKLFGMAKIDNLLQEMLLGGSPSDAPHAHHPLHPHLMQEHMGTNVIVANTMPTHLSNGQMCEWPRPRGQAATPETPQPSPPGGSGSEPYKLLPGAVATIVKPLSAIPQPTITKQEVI
UniProt Q96RI1, whole entry: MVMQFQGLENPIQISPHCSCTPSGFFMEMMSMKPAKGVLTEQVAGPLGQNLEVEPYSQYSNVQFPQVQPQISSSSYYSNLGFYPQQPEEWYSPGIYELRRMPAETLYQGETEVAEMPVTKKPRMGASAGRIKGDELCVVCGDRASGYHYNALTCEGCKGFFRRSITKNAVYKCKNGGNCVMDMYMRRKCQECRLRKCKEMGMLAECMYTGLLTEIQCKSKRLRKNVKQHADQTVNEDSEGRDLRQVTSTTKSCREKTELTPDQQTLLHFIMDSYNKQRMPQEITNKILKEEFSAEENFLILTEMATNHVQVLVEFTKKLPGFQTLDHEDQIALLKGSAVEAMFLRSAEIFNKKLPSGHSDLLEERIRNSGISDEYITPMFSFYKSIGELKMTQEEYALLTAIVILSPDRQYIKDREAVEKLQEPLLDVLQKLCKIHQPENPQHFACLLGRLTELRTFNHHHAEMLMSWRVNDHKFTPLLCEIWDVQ

Assays:
[1] = target: Oxysterols receptor LXR-alpha (Homo sapiens) (UniProt Q13133); experiment: ATG_LXRa_TRANS: Attagene TRANS-FACTORIAL HepG2 Assay for human Liver X Receptor alpha (LXRa) (AID 2282980; active = hit-call score of the fitted dose curve at least 0.9, where 1 is the maximum); details: HepG2 Attagene TRANS reporter, LXRa transactivation
In short: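 Transient HepG2 transfectants, 24 h dosing, RT-PCR/CE mRNA reporter quantitation; gain-of-signal vs DMSO.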

[2] = target: Oxysterols receptor LXR-beta (Homo sapiens) (UniProt P55055); experiment: ATG_LXRb_TRANS: Attagene TRANS-FACTORIAL HepG2 Assay for human Liver X Receptor beta (LXRb) (AID 2282981; active = hit-call score of the fitted dose curve at least 0.9, where 1 is the maximum); details: HepG2 Attagene TRANS GAL4-LXRb reporter, mRNA
In short: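 After 24 h chemical treatment of transfected HepG2 cells carrying exogenous NR-Gal4 chimeras, reporter mRNA was quantified by fluorescent RT-PCR and capillary electrophoresis; activity taken as increase over DMSO controls.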

[3] = ATG_M_06_TRANS: Attagene TRANS-FACTORIAL HepG2 Assay for M06 Transcription Factor (Internal Marker) (AID 2282983; active = hit-call score of the fitted dose curve at least 0.9, where 1 is the maximum); details: HepG2 Attagene TRANS M06 internal marker reporter
In short: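 Human liver HepG2 cells bearing transiently transfected chimeric NR-GAL4 reporter units were treated with chemicals for 24 h. Total RNA was reverse-transcribed, reporter sequences amplified and labelled, then quantified by capillary electrophoresis. Activity was fitted upward relative to DMSO.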

[4] = ATG_M_32_TRANS: Attagene TRANS-FACTORIAL HepG2 Assay for M32 Transcription Factor (Internal Marker) (AID 2282984; active = hit-call score of the fitted dose curve at least 0.9, where 1 is the maximum;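 also: transcript level of a background control reporter unit measured by RT-PCR and capillary electrophoresis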); details: HepG2 Attagene TRANS M32 internal marker reporter
In short: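 Internal background reporter in transfected HepG2: after 24 h chemical exposure, RNA reverse-transcribed, reporter cDNA amplified, fluorescently labelled and HpaI-cut, then sized by capillary electrophoresis. Gain of signal fitted against DMSO control.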

[5] = target: Transcriptional activator Myb (Homo sapiens) (UniProt P10242); experiment: ATG_Myb_CIS: Attagene CIS-FACTORIAL HepG2 Assay for human Myeloblastosis (Myb) Proto-Oncogene Transcription Factor (AID 2282986); details: HepG2 Attagene CIS-FACTORIAL Myb reporter transcription; actives raise or lower the signal
In short: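 After 24 h of compound dosing, total RNA from transfected HepG2 cells is reverse-transcribed and the reporter sequences amplified, labeled and separated by capillary electrophoresis. Values come from bidirectional fitting against DMSO.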

[6] = target: Nuclear respiratory factor 1 (Homo sapiens) (UniProt Q16656); experiment: ATG_NRF1_CIS: Attagene CIS-FACTORIAL HepG2 Assay for human Nuclear Respiratory Factor 1 (NRF1) Orphan Gene (AID 2282987); details: HepG2 NRF1 cis-element reporter, Attagene multiplex; actives raise or lower the signal
In short: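 Measured: fluorescent reporter-specific RT-PCR products from transfected HepG2 cells, separated by capillary electrophoresis. Exposure lasted 24 h. Analysis used bidirectional curve fitting with DMSO as negative control.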

[7] = ATG_NFI_CIS: Attagene CIS-FACTORIAL HepG2 Assay for human Nuclear Factor I (NFI) (AID 2282989); details: HepG2 cis-regulatory reporter, NFI response element transcription; actives raise or lower the signal
In short: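 Transient MRTU transfection of HepG2 → 24 h chemical dosing → total RNA, oligo(dT) RT → PCR, 6-FAM primer extension, HpaI cut → capillary electrophoresis. Endpoint fitted bidirectionally relative to DMSO.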

[8] = target: Myc proto-oncogene protein (Homo sapiens) (UniProt P01106); experiment: ATG_Myc_CIS: Attagene CIS-FACTORIAL HepG2 Assay for human Myelocytomatosis (Myc) Proto-Oncogene Transcription Factor (AID 2282990); details: HepG2, Attagene cis-reporter transcription factor activity; actives raise or lower the signal
In short: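 Cells of the HepG2 human liver line bear multiple cis-driven reporter transcription units. Reporter mRNA after 24 h exposure is reverse-transcribed, amplified, labelled and resolved by capillary electrophoresis, with gain- or loss-of-signal fitting relative to DMSO.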

[9] = ATG_NF_kB_CIS: Attagene CIS-FACTORIAL HepG2 Assay for human Nuclear Factor Kappa B (NF-kB) (AID 2282991); details: HepG2 Attagene cis-factorial NF-kB reporter mRNA; actives raise or lower the signal
In short: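 Fluorescence of labelled RT-PCR products separated by capillary electrophoresis gives reporter mRNA levels from transfected HepG2 cells exposed 24 h; values are fitted in both directions relative to DMSO.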

[10] = ATG_NRF2_ARE_CIS: Attagene CIS-FACTORIAL HepG2 Assay for human Nuclear Factor Erythroid 2 Related Factor 2 (NFR2) response to Antioxidant Response Elements (ARE) (AID 2282992); details: HepG2 Attagene ARE/NRF2 reporter, transcription factor activity; actives raise or lower the signal
In short: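 Readout: reporter mRNA quantified by RT-PCR plus FAM-labelled primer extension, HpaI digestion and capillary electrophoresis, 24 h after dosing transfected HepG2 cells. Gain or loss of signal is fitted bidirectionally against DMSO baseline.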

[11] = ATG_Oct_MLP_CIS: Attagene CIS-FACTORIAL HepG2 Assay for human Octamer-Binding Transcription Factor (Oct) (AID 2282993); details: HepG2 Attagene cis-factorial Oct reporter, mRNA; actives raise or lower the signal
In short: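 Transient MRTU transfection of HepG2 → 24 h compound treatment → RNA isolation, reverse transcription, PCR → 6-FAM primer extension, HpaI digest → capillary electrophoresis. Activity fitted both directions against DMSO.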

[12] = target: Cellular tumor antigen p53 (Homo sapiens) (UniProt P04637); experiment: ATG_p53_CIS: Attagene CIS-FACTORIAL HepG2 Assay for human p53 Transcription Factor (AID 2282994); details: HepG2 p53 cis-element reporter, Attagene mRNA; actives raise or lower the signal
In short: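 Read-out: reporter mRNA by RT-PCR plus capillary electrophoresis with fluorescence detection. Human HepG2 liver cells carried transfected multi-reporter cis-element constructs, dosed 24 h. Gain or loss of signal fitted bidirectionally against DMSO control.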

[13] = target: Estrogen-related receptor gamma (Homo sapiens) (UniProt P62508); experiment: ATG_ERRg_TRANS: Attagene TRANS-FACTORIAL HepG2 Assay for human Estrogen-Related Receptor gamma (ERRg) (AID 2282977; active = hit-call score of the fitted dose curve at least 0.9, where 1 is the maximum;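 also: hits increase reporter signal over DMSO so potencies reflect activators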); details: HepG2 Attagene TRANS reporter, ERRg transactivation
In short: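 Exogenous NR-Gal4 chimera activity measured as reporter transcript induction after 24 h in transiently transfected HepG2 cells. RNA reverse-transcribed, PCR-amplified, 6-FAM-labelled and resolved by capillary electrophoresis; increase over DMSO baseline.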

[14] = target: Glucocorticoid receptor (Homo sapiens) (UniProt P04150); experiment: ATG_GR_TRANS: Attagene TRANS-FACTORIAL HepG2 Assay for human Glucocorticoid Receptor (GR) (AID 2282978; active = hit-call score of the fitted dose curve at least 0.9, where 1 is the maximum;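 also: activators score as hits since higher reporter transcript over DMSO is fitted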); details: HepG2 Attagene TRANS GR reporter, mRNA transcription
[15] = target: Hepatocyte nuclear factor 4-alpha (Homo sapiens) (UniProt P41235); experiment: ATG_HNF4a_TRANS: Attagene TRANS-FACTORIAL HepG2 Assay for human Hepatocyte Nuclear Factor 4 alpha (HNF4a) (AID 2282982; active = hit-call score of the fitted dose curve at least 0.9, where 1 is the maximum); details: HepG2 HNF4a transactivation reporter, mRNA readout
In short: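 Activity of an exogenous HNF4a–Gal4 fusion scored as induced GAL4-UAS reporter transcripts after 24 h chemical exposure of transfected human HepG2 cells. Read-out via RT-PCR with 6-FAM labelling and capillary electrophoresis; rise over DMSO baseline.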

[16] = BSK_3C_TissueFactor: BioMAP Diversity Plus: 3C Assay for Tissue Factor Biomarker Activity (AID 2282997); details: BioMAP 3C HUVEC, tissue factor biomarker readout; actives raise or lower the signal
In short: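 Cells used were primary human umbilical vein endothelial cells. They were dosed with chemical, and after 24 h Tissue Factor was quantified by ELISA. Curves were fitted bidirectionally with DMSO as baseline.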

[17] = BSK_3C_uPAR: BioMAP Diversity Plus: 3C Assay for Urokinase-type plasminogen activator receptor (uPAR) Biomarker Activity (AID 2282998); details: BioMAP 3C HUVEC, uPAR biomarker ELISA; actives raise or lower the signal
In short: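 ELISA readout of uPAR on human vascular endothelium (umbilical vein primary cells), taken 24 h after chemical dosing. Increases and decreases are both fitted relative to DMSO vehicle.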

[18] = BSK_3C_VCAM1: BioMAP Diversity Plus: 3C Assay for Vascular cell adhesion molecule 1 (VCAM1) Biomarker Activity (AID 2282999); details: BioMAP 3C HUVEC, VCAM1 ELISA, cytokine-stimulated; actives raise or lower the signal
In short: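 Activity fitted in both directions relative to DMSO, with ELISA measurement of the surface marker on primary HUVEC (3C) at 24 h post-treatment; parallel SRB staining (0.1% SRB, TCA-fixed, 560 nm) flagged overt cytotoxicity.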

[19] = ATG_GAL4_TRANS: Attagene TRANS-FACTORIAL HepG2 Assay for GAL4 (Internal Marker) (AID 2282976; active = hit-call score of the fitted dose curve at least 0.9, where 1 is the maximum); details: HepG2 Attagene TRANS GAL4 internal marker reporter
In short: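 Fluorescence from capillary electrophoresis of labelled RT-PCR products quantifies reporter mRNA induction after 24 h dosing of HepG2 cells carrying transfected GAL4-UAS reporter transcription units. Vehicle DMSO serves as baseline.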

[20] = target: Bile acid receptor (Homo sapiens) (UniProt Q96RI1); experiment: ATG_FXR_TRANS: Attagene TRANS-FACTORIAL HepG2 Assay for Farnesoid X Receptor (FXR) (AID 2282979; active = hit-call score of the fitted dose curve at least 0.9, where 1 is the maximum;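 also: hits raise reporter mRNA above DMSO so AC50 marks FXR activation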); details: HepG2 Attagene TRANS FXR-GAL4 reporter transcription
In short: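 Chimeric FXR-GAL4 activity in transiently transfected human HepG2 liver cells is scored as induction of reporter mRNA after 24 h of dosing. Detection uses RT-PCR with fluorescent labelling and capillary electrophoresis, with DMSO serving as baseline.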

Measured: AC50

CCOP(=O)(Cl)Cl
not listed: [13] | [14] | [15] | [16] | [17] | [18] | [19] | [20]
inactive: all other assays above

O=[N+]([O-])c1ccccc1[N+](=O)[O-]
active: [10] 7.39 µM | [16] 17.9 µM | [18] 10.3 µM
not listed: [2] | [3] | [19] | [20]
inactive: all other assays above

ClCCNCCCl
not listed: [2] | [13] | [16] | [17] | [18] | [19] | [20]
inactive: all other assays above

CC(C)OP(OC(C)C)OC(C)C
not listed: [3] | [13] | [15]
inactive: all other assays above

ClCCOP(OCCCl)OCCCl
inactive: [14] | [2] | [15] | [5] | [6] | [7] | [8] | [9] | [10] | [11] | [12]
